Membrane permeability of cyclic peptides

Values of Furukawa et al. 2016, doi:10.1021/acs.jmedchem.6b01246, as listed in CycPeptMPDB.

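Lipid, pH, incubation time, direction and concentration are not recorded in the data file. The list need not hold all peptides of the study. Peptides that the database sets to -10, its floor, are left out.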

PAMPA measures passive passage through an artificial lipid membrane. Permeability is in 10^-6 cm/s, converted from the database's log10 values; higher is more permeable.

compound	PAMPA (10^-6 cm/s)
CCCC[C@@H]1NC(=O)[C@H](CC(C)C)N(C)C(=O)CN(CCCc2ccccc2)C(=O)[C@H](CC(C)C)NC(=O)CN(Cc2ccc3c(c2)OCO3)C(=O)[C@H]2CCCN2C1=O	0.036
CCCC[C@@H]1NC(=O)[C@H](CC(C)C)N(C)C(=O)CN(CCCc2cnn(C)c2)C(=O)[C@H](Cc2ccc3ccccc3c2)NC(=O)CN(Cc2ccc3c(c2)OCO3)C(=O)[C@H]2CCCN2C1=O	0.025
CCCC[C@@H]1NC(=O)[C@H](CC(C)C)N(C)C(=O)CN(CCOc2ccccc2)C(=O)[C@H](C)NC(=O)CN(Cc2ccc3c(c2)OCO3)C(=O)[C@H]2CCCN2C1=O	2.8
CCCC[C@@H]1NC(=O)[C@H](CC(C)C)N(C)C(=O)CN(CCOc2ccccc2)C(=O)[C@H](Cc2ccccc2)NC(=O)CN(Cc2ccc3c(c2)OCO3)C(=O)[C@H]2CCCN2C1=O	0.017
CCCC[C@@H]1NC(=O)[C@H](CC(C)C)N(C)C(=O)CN(CCCN2CCCC2=O)C(=O)[C@H](Cc2ccc3ccccc3c2)NC(=O)CN(CCCOC(C)C)C(=O)[C@H]2CCCN2C1=O	1.5
CCCC[C@@H]1NC(=O)[C@H](CC(C)C)N(C)C(=O)CN(CCOC)C(=O)[C@H](C)NC(=O)CN(CC)C(=O)[C@H]2CCCN2C1=O	0.074
CCCC[C@@H]1NC(=O)[C@H](CC(C)C)N(C)C(=O)CN(CC2CCCCC2)C(=O)[C@H](Cc2ccc3ccccc3c2)NC(=O)CN(CC(C)C)C(=O)[C@H]2CCCN2C1=O	0.0019
CCCC[C@@H]1NC(=O)[C@H](CC(C)C)N(C)C(=O)CN(CCc2cccnc2)C(=O)[C@H](Cc2ccccc2)NC(=O)CN(Cc2ccccc2Cn2cccn2)C(=O)[C@H]2CCCN2C1=O	2
CCCC[C@@H]1NC(=O)[C@H](CC(C)C)N(C)C(=O)CN(CCCc2ccccc2)C(=O)[C@H](Cc2ccc3ccccc3c2)NC(=O)CN(CCN2CCOCC2)C(=O)[C@H]2CCCN2C1=O	0.43
CCCC[C@@H]1NC(=O)[C@H](CC(C)C)N(C)C(=O)CN(CCOc2ccccc2)C(=O)[C@H](Cc2ccccc2)NC(=O)CN(Cc2ccccc2Cn2cccn2)C(=O)[C@H]2CCCN2C1=O	0.16
CCCC[C@@H]1NC(=O)[C@H](CC(C)C)N(C)C(=O)CN(CCCc2cnn(C)c2)C(=O)[C@H](C)NC(=O)CN(CCC)C(=O)[C@H]2CCCN2C1=O	0.14
CCCC[C@@H]1NC(=O)[C@H](CC(C)C)N(C)C(=O)CN(CCOc2ccccc2)C(=O)[C@H](C)NC(=O)CN(CC(C)C)C(=O)[C@H]2CCCN2C1=O	8.9
CCCC[C@@H]1NC(=O)[C@H](CC(C)C)N(C)C(=O)CN(CC2CCOCC2)C(=O)[C@H](Cc2ccc3ccccc3c2)NC(=O)CN(CC(C)C)C(=O)[C@H]2CCCN2C1=O	3
CCCC[C@@H]1NC(=O)[C@H](CC(C)C)N(C)C(=O)CN(CCc2cccnc2)C(=O)[C@H](Cc2ccccc2)NC(=O)CN(CC)C(=O)[C@H]2CCCN2C1=O	1.3
CCCC[C@@H]1NC(=O)[C@H](CC(C)C)N(C)C(=O)CN(CCOC)C(=O)[C@H](Cc2ccc3ccccc3c2)NC(=O)CN(Cc2cc(CC(C)C)on2)C(=O)[C@H]2CCCN2C1=O	0.13
CCCC[C@@H]1NC(=O)[C@H](CC(C)C)N(C)C(=O)CN(CCOc2ccccc2)C(=O)[C@H](Cc2ccccc2)NC(=O)CN(Cc2ccc(Cl)cc2)C(=O)[C@H]2CCCN2C1=O	0.0044
CCCC[C@@H]1NC(=O)[C@H](CC(C)C)N(C)C(=O)CN(CCCN2CCCC2=O)C(=O)[C@H](C)NC(=O)CN(CCCOC(C)C)C(=O)[C@H]2CCCN2C1=O	0.019
CCCC[C@@H]1NC(=O)[C@H](CC(C)C)N(C)C(=O)CN(CCCc2ccccc2)C(=O)[C@H](Cc2ccccc2)NC(=O)CN(CCCCc2ccccc2)C(=O)[C@H]2CCCN2C1=O	0.0031
CCCC[C@@H]1NC(=O)[C@H](CC(C)C)N(C)C(=O)CN(Cc2ccccc2)C(=O)[C@H](C)NC(=O)CN(Cc2ccc(Cl)cc2)C(=O)[C@H]2CCCN2C1=O	3.3
CCCC[C@@H]1NC(=O)[C@H](CC(C)C)N(C)C(=O)CN(CCCc2ccccc2)C(=O)[C@H](Cc2ccc3ccccc3c2)NC(=O)CN(CCCOC(C)C)C(=O)[C@H]2CCCN2C1=O	0.1
CCCC[C@@H]1NC(=O)[C@H](CC(C)C)N(C)C(=O)CN(CCOc2ccccc2)C(=O)[C@H](Cc2ccc3ccccc3c2)NC(=O)CN(CC(C)C)C(=O)[C@H]2CCCN2C1=O	0.011
CCCC[C@@H]1NC(=O)[C@H](CC(C)C)N(C)C(=O)CN(CCOC)C(=O)[C@H](C)NC(=O)CN(CC(C)C)C(=O)[C@H]2CCCN2C1=O	0.83
CCCC[C@@H]1NC(=O)[C@H](CC(C)C)N(C)C(=O)CN(CCOC)C(=O)[C@H](C)NC(=O)CN(CCC)C(=O)[C@H]2CCCN2C1=O	0.28

Extract of 3 entries:

compound	PAMPA (10^-6 cm/s)
CCCC[C@@H]1NC(=O)[C@H](CC(C)C)N(C)C(=O)CN(CCCc2ccccc2)C(=O)[C@H](Cc2ccccc2)NC(=O)CN(CCCCc2ccccc2)C(=O)[C@H]2CCCN2C1=O	0.0031
CCCC[C@@H]1NC(=O)[C@H](CC(C)C)N(C)C(=O)CN(CCCc2ccccc2)C(=O)[C@H](Cc2ccc3ccccc3c2)NC(=O)CN(CCN2CCOCC2)C(=O)[C@H]2CCCN2C1=O	0.43
CCCC[C@@H]1NC(=O)[C@H](CC(C)C)N(C)C(=O)CN(CCOc2ccccc2)C(=O)[C@H](Cc2ccccc2)NC(=O)CN(Cc2ccc(Cl)cc2)C(=O)[C@H]2CCCN2C1=O	0.0044